Laboratory results reported in PubChem BioAssay AID687016 (The Scripps Research Institute Molecular Screening Center, 2013).
This is a selection; strong and weak results do not stand in their true shares. Activity calls are given as the source filed them. No stated cut-off is given here; in the data, active means inhibition above about 21%; inactive means the rest.

Protein sequences, listed by entry. Tags and fused reporters are not part of them.
UniProt Q96T88, whole entry: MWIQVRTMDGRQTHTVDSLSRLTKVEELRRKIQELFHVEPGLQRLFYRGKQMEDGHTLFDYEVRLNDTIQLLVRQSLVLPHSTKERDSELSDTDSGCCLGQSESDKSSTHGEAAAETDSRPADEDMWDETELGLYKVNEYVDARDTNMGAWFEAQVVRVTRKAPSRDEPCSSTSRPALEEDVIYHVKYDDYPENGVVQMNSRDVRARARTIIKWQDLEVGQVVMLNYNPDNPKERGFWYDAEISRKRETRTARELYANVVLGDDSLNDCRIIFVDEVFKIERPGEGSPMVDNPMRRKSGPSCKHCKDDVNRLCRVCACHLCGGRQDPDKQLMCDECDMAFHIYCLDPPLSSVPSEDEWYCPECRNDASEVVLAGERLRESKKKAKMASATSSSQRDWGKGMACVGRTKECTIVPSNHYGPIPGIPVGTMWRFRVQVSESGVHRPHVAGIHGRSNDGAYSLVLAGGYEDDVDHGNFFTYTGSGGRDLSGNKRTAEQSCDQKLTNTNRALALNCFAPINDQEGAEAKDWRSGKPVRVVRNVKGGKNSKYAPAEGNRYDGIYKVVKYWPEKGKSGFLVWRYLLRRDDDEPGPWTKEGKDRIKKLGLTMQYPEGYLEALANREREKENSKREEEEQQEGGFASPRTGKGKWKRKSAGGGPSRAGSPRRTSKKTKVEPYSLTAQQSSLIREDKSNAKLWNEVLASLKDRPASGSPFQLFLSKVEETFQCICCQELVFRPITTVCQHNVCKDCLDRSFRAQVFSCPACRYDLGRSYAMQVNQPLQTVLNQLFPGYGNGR

Target: E3 ubiquitin-protein ligase UHRF1 (Homo sapiens) (UniProt Q96T88)
Experiment: blockers of UHRF1 binding to methyl-oligo – biochemical, TR-FRET, human UHRF1, single concentration, counter-screen for MBD2 inhibitor project, primary screen (AID 687016);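 further: UHRF1 SRA domain binding a hemimethylated CpG hairpin DNA probe; 0% = median of test compound wells and 100% = reference inhibitor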
Conditions: UHRF1 binding to methylated oligo, at 4.4 µM, active compounds read high

For `CCC(=O)N(c1ccccc1)C1(COC)CCN(CCn2nnn(CC)c2=O)CC1`, which inhibition is on record?
Its inhibition is inactive: 1.34%.

With `CCC(=O)N(c1ccccc1)C1(COC)CCN(CCc2cccs2)CC1` as the compound, how does the inhibition read?
Its inhibition is inactive: -1.96%.
